Test results taken from US12319671B2, “1-pyrazolyl, 5-, 6-disubstituted indazole derivatives as LRRK2 inhibitors, pharmaceutical compositions, and uses thereof” (Merck Sharp & Dohme LLC, priority 2019, dated 2025).

Amino acid sequences for entries named in this document (tags omitted). Residues count along the entry.
UniProt Q5S007, 970-2527 G2019S: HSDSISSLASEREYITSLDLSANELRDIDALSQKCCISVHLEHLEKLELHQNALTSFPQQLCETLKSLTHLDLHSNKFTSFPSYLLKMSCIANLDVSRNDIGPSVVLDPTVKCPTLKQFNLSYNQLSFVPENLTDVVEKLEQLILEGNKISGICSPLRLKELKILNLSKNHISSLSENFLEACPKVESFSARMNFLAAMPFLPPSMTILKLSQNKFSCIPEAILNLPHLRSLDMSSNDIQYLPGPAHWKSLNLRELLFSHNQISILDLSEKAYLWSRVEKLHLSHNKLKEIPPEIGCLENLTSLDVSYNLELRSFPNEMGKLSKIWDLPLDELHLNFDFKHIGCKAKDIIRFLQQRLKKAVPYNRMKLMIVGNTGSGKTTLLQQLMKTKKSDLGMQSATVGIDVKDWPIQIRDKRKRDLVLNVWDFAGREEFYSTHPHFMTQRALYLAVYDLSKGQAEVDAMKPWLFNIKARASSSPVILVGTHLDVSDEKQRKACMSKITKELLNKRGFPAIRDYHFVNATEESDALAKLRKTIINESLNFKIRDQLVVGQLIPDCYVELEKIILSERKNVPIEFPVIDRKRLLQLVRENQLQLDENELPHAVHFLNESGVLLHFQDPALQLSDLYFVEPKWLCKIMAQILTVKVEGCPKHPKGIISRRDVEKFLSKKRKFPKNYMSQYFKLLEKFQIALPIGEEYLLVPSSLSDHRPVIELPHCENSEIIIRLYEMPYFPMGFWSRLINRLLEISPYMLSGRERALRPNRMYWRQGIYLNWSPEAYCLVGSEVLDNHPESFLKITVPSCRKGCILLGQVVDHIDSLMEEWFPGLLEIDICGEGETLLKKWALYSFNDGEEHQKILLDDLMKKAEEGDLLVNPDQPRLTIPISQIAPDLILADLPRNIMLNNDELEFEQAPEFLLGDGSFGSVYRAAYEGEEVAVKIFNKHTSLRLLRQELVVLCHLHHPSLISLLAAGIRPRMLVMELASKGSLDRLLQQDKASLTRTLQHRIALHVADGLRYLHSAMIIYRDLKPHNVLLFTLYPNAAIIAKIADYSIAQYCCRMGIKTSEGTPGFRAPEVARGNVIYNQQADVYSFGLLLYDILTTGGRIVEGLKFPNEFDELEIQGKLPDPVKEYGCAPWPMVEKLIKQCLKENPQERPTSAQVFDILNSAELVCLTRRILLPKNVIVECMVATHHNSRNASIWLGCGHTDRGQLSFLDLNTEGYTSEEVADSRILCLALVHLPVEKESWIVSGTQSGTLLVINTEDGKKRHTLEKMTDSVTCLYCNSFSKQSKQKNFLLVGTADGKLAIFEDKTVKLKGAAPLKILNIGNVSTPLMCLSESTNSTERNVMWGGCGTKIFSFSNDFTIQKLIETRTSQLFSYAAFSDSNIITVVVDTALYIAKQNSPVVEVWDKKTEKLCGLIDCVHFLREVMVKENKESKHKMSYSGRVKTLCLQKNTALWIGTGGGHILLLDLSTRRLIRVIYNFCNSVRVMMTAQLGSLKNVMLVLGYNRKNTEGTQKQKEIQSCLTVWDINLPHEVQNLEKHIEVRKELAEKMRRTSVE

Biological target: GST-tagged truncated human mutant G2019S LRRK2 (Homo sapiens (Human), UniProt Q5S007, G2019S)
Test: LRRK2 G2019S Km ATP LanthaScreen Assay
Conditions: comparison of the two enantiomers

CN1CCC(n2cc(-n3ncc4cc(Cl)c(N5CCN(C6(C)COC6)CC5)cc43)cn2)C1=O (single isomer, unassigned) [Example 5.7, (R or S)-3-(4-(5-chloro-6-(4-(3-methyloxetan-3-yl)piperazin-1-yl)-1H-indazol-1-yl)-1H-pyrazol-1-yl)-1-methylpyrrolidin-2-one]
relative potency of the two enantiomers from chiral SFC separation: more potent enantiomer
